From PMC4423116, “Tarantula toxins use common surfaces for interacting with Kv and ASIC ion channels” (eLife, 2015)

Target: T1, Kv2.1 channel (Rattus norvegicus, UniProt P15387)
T1 construct: expressed in transfected cells; host or cells: Xenopus laevis oocytes, cRNA injection
T1 sequence (P15387 1-857): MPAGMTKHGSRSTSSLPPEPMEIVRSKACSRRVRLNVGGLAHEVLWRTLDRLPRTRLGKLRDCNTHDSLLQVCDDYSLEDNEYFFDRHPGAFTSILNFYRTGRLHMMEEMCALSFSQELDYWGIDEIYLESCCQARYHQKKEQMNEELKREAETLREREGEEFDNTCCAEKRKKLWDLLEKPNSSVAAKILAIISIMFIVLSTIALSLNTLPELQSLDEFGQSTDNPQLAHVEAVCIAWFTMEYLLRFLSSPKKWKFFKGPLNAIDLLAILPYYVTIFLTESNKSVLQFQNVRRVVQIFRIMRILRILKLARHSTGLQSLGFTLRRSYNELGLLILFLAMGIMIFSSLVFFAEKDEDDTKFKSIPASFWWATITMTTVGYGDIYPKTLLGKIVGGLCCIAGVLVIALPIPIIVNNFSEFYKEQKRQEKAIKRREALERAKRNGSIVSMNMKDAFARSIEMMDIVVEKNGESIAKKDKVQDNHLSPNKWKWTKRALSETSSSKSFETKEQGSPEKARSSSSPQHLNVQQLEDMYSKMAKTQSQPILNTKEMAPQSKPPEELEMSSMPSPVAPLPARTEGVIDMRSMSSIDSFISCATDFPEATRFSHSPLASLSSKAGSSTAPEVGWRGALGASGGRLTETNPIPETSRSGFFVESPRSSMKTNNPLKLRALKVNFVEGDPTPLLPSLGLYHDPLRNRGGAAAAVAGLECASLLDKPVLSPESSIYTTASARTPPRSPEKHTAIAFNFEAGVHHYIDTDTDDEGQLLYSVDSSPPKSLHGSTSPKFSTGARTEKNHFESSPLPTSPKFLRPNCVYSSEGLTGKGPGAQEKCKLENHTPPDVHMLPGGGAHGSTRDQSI
Assay: Inhibition of Kv2.1 channel currents in Xenopus oocytes (two-electrode voltage clamp), apparent affinity
Format: cell-based
Conditions: Kv2.1 in oocytes; for ∆∆G (perturbation energy): from apparent Kd of mutant vs GxTx-1E(Nle); for Kd^mut/Kd^wt: ratio of apparent Kd of mutant to GxTx-1E(Nle)

| Compound | ∆∆G (perturbation energy) [kcal/mol] | Kd^mut/Kd^wt |
| --- | --- | --- |
| CCCC[C@H](NC(=O)[C@@H]1CCCN1C(=O)[C@H](Cc1ccccc1)NC(=O)[C@H](CC(N)=O)NC(=O)[C@@H]1CSSC[C@@H]2NC(=O)[C@H](C)NC(=O)[C@@H]3CCCN3C(=O)[C@H](CCCCN)NC(=O)CNC(=O)[C@H](CO)NC(=O)CNC(=O)[C@@H]3CSSC[C@H](NC(=O)[C@H](C(C)C)NC(=O)[C@H](Cc4ccc(O)cc4)NC(=O)[C@H](CCCCN)NC(=O)[C@@H]4CCCN4C(=O)[C@H](CSSC[C@H](NC(=O)[C@H](C)NC(=O)CNC(=O)[C@@H](N)CCC(=O)O)C(=O)NCC(=O)NCC(=O)N[C@@H](Cc4ccccc4)C(=O)N[C@@H](Cc4c[nH]c5ccccc45)C(=O)N[C@@H](Cc4c[nH]c5ccccc45)C(=O)N[C@@H](CCCCN)C(=O)N3)NC2=O)C(=O)N[C@@H](CO)C(=O)N2CCC[C@H]2C(=O)N[C@@H](CCCCN)C(=O)N[C@@H](Cc2c[nH]c3ccccc23)C(=O)NCC(=O)N[C@@H](CC(C)C)C(=O)N1)C(=O)N1CCC[C@H]1C(=O)O [Toxin E3A] | -0.35 | – |
| CCCC[C@H](NC(=O)[C@@H]1CCCN1C(=O)[C@H](Cc1ccccc1)NC(=O)[C@H](CC(N)=O)NC(=O)[C@@H]1CSSC[C@@H]2NC(=O)[C@H](C)NC(=O)[C@@H]3CCCN3C(=O)[C@H](CCCCN)NC(=O)CNC(=O)[C@H](CO)NC(=O)CNC(=O)[C@@H]3CSSC[C@H](NC(=O)[C@H](C(C)C)NC(=O)[C@H](Cc4ccc(O)cc4)NC(=O)[C@H](CCCCN)NC(=O)[C@@H]4CCCN4C(=O)[C@H](CSSC[C@H](NC(=O)[C@H](CCC(=O)O)NC(=O)CNC(=O)[C@@H](N)CCC(=O)O)C(=O)NCC(=O)NCC(=O)N[C@@H](C)C(=O)N[C@@H](Cc4c[nH]c5ccccc45)C(=O)N[C@@H](Cc4c[nH]c5ccccc45)C(=O)N[C@@H](CCCCN)C(=O)N3)NC2=O)C(=O)N[C@@H](CO)C(=O)N2CCC[C@H]2C(=O)N[C@@H](CCCCN)C(=O)N[C@@H](Cc2c[nH]c3ccccc23)C(=O)NCC(=O)N[C@@H](CC(C)C)C(=O)N1)C(=O)N1CCC[C@H]1C(=O)O [Toxin F7A] | 3.55 | – |
| CCCC[C@H](NC(=O)[C@@H]1CCCN1C(=O)[C@H](C)NC(=O)[C@H](CC(N)=O)NC(=O)[C@@H]1CSSC[C@@H]2NC(=O)[C@H](C)NC(=O)[C@@H]3CCCN3C(=O)[C@H](CCCCN)NC(=O)CNC(=O)[C@H](CO)NC(=O)CNC(=O)[C@@H]3CSSC[C@H](NC(=O)[C@H](C(C)C)NC(=O)[C@H](Cc4ccc(O)cc4)NC(=O)[C@H](CCCCN)NC(=O)[C@@H]4CCCN4C(=O)[C@H](CSSC[C@H](NC(=O)[C@H](CCC(=O)O)NC(=O)CNC(=O)[C@@H](N)CCC(=O)O)C(=O)NCC(=O)NCC(=O)N[C@@H](Cc4ccccc4)C(=O)N[C@@H](Cc4c[nH]c5ccccc45)C(=O)N[C@@H](Cc4c[nH]c5ccccc45)C(=O)N[C@@H](CCCCN)C(=O)N3)NC2=O)C(=O)N[C@@H](CO)C(=O)N2CCC[C@H]2C(=O)N[C@@H](CCCCN)C(=O)N[C@@H](Cc2c[nH]c3ccccc23)C(=O)NCC(=O)N[C@@H](CC(C)C)C(=O)N1)C(=O)N1CCC[C@H]1C(=O)O [Toxin F33A] | 0.47 | 2.2 |
| CCCC[C@H](NC(=O)[C@@H]1CCCN1C(=O)[C@H](Cc1ccccc1)NC(=O)[C@H](CC(N)=O)NC(=O)[C@@H]1CSSC[C@@H]2NC(=O)[C@H](C)NC(=O)[C@@H]3CCCN3C(=O)[C@H](CCCCN)NC(=O)CNC(=O)[C@H](CO)NC(=O)CNC(=O)[C@@H]3CSSC[C@H](NC(=O)[C@H](C(C)C)NC(=O)[C@H](Cc4ccc(O)cc4)NC(=O)[C@H](CCCCN)NC(=O)[C@@H]4CCCN4C(=O)[C@H](CSSC[C@H](NC(=O)[C@H](CCC(=O)O)NC(=O)[C@H](C)NC(=O)[C@@H](N)CCC(=O)O)C(=O)NCC(=O)NCC(=O)N[C@@H](Cc4ccccc4)C(=O)N[C@@H](Cc4c[nH]c5ccccc45)C(=O)N[C@@H](Cc4c[nH]c5ccccc45)C(=O)N[C@@H](CCCCN)C(=O)N3)NC2=O)C(=O)N[C@@H](CO)C(=O)N2CCC[C@H]2C(=O)N[C@@H](CCCCN)C(=O)N[C@@H](Cc2c[nH]c3ccccc23)C(=O)NCC(=O)N[C@@H](CC(C)C)C(=O)N1)C(=O)N1CCC[C@H]1C(=O)O [Toxin G2A] | 0.17 | – |
| CCCC[C@H](NC(=O)[C@@H]1CCCN1C(=O)[C@H](Cc1ccccc1)NC(=O)[C@H](CC(N)=O)NC(=O)[C@@H]1CSSC[C@@H]2NC(=O)[C@H](C)NC(=O)[C@@H]3CCCN3C(=O)[C@H](CCCCN)NC(=O)CNC(=O)[C@H](CO)NC(=O)CNC(=O)[C@@H]3CSSC[C@H](NC(=O)[C@H](C(C)C)NC(=O)[C@H](Cc4ccc(O)cc4)NC(=O)[C@H](CCCCN)NC(=O)[C@@H]4CCCN4C(=O)[C@H](CSSC[C@H](NC(=O)[C@H](CCC(=O)O)NC(=O)CNC(=O)[C@@H](N)CCC(=O)O)C(=O)N[C@@H](C)C(=O)NCC(=O)N[C@@H](Cc4ccccc4)C(=O)N[C@@H](Cc4c[nH]c5ccccc45)C(=O)N[C@@H](Cc4c[nH]c5ccccc45)C(=O)N[C@@H](CCCCN)C(=O)N3)NC2=O)C(=O)N[C@@H](CO)C(=O)N2CCC[C@H]2C(=O)N[C@@H](CCCCN)C(=O)N[C@@H](Cc2c[nH]c3ccccc23)C(=O)NCC(=O)N[C@@H](CC(C)C)C(=O)N1)C(=O)N1CCC[C@H]1C(=O)O [Toxin G5A] | 2.44 | – |
| CCCC[C@H](NC(=O)[C@@H]1CCCN1C(=O)[C@H](Cc1ccccc1)NC(=O)[C@H](CC(N)=O)NC(=O)[C@@H]1CSSC[C@@H]2NC(=O)[C@H](C)NC(=O)[C@@H]3CCCN3C(=O)[C@H](CCCCN)NC(=O)CNC(=O)[C@H](CO)NC(=O)CNC(=O)[C@@H]3CSSC[C@H](NC(=O)[C@H](C(C)C)NC(=O)[C@H](Cc4ccc(O)cc4)NC(=O)[C@H](CCCCN)NC(=O)[C@@H]4CCCN4C(=O)[C@H](CSSC[C@H](NC(=O)[C@H](CCC(=O)O)NC(=O)CNC(=O)[C@@H](N)CCC(=O)O)C(=O)NCC(=O)N[C@@H](C)C(=O)N[C@@H](Cc4ccccc4)C(=O)N[C@@H](Cc4c[nH]c5ccccc45)C(=O)N[C@@H](Cc4c[nH]c5ccccc45)C(=O)N[C@@H](CCCCN)C(=O)N3)NC2=O)C(=O)N[C@@H](CO)C(=O)N2CCC[C@H]2C(=O)N[C@@H](CCCCN)C(=O)N[C@@H](Cc2c[nH]c3ccccc23)C(=O)NCC(=O)N[C@@H](CC(C)C)C(=O)N1)C(=O)N1CCC[C@H]1C(=O)O [Toxin G6A] | 0.31 | – |
| CCCC[C@H](NC(=O)[C@@H]1CCCN1C(=O)[C@H](Cc1ccccc1)NC(=O)[C@H](CC(N)=O)NC(=O)[C@@H]1CSSC[C@@H]2NC(=O)[C@H](C)NC(=O)[C@@H]3CCCN3C(=O)[C@H](CCCCN)NC(=O)CNC(=O)[C@H](CO)NC(=O)[C@H](C)NC(=O)[C@@H]3CSSC[C@H](NC(=O)[C@H](C(C)C)NC(=O)[C@H](Cc4ccc(O)cc4)NC(=O)[C@H](CCCCN)NC(=O)[C@@H]4CCCN4C(=O)[C@H](CSSC[C@H](NC(=O)[C@H](CCC(=O)O)NC(=O)CNC(=O)[C@@H](N)CCC(=O)O)C(=O)NCC(=O)NCC(=O)N[C@@H](Cc4ccccc4)C(=O)N[C@@H](Cc4c[nH]c5ccccc45)C(=O)N[C@@H](Cc4c[nH]c5ccccc45)C(=O)N[C@@H](CCCCN)C(=O)N3)NC2=O)C(=O)N[C@@H](CO)C(=O)N2CCC[C@H]2C(=O)N[C@@H](CCCCN)C(=O)N[C@@H](Cc2c[nH]c3ccccc23)C(=O)NCC(=O)N[C@@H](CC(C)C)C(=O)N1)C(=O)N1CCC[C@H]1C(=O)O [Toxin G12A] | 2.71 | 97.1 |
| CCCC[C@H](NC(=O)[C@@H]1CCCN1C(=O)[C@H](Cc1ccccc1)NC(=O)[C@H](CC(N)=O)NC(=O)[C@@H]1CSSC[C@@H]2NC(=O)[C@H](C)NC(=O)[C@@H]3CCCN3C(=O)[C@H](CCCCN)NC(=O)[C@H](C)NC(=O)[C@H](CO)NC(=O)CNC(=O)[C@@H]3CSSC[C@H](NC(=O)[C@H](C(C)C)NC(=O)[C@H](Cc4ccc(O)cc4)NC(=O)[C@H](CCCCN)NC(=O)[C@@H]4CCCN4C(=O)[C@H](CSSC[C@H](NC(=O)[C@H](CCC(=O)O)NC(=O)CNC(=O)[C@@H](N)CCC(=O)O)C(=O)NCC(=O)NCC(=O)N[C@@H](Cc4ccccc4)C(=O)N[C@@H](Cc4c[nH]c5ccccc45)C(=O)N[C@@H](Cc4c[nH]c5ccccc45)C(=O)N[C@@H](CCCCN)C(=O)N3)NC2=O)C(=O)N[C@@H](CO)C(=O)N2CCC[C@H]2C(=O)N[C@@H](CCCCN)C(=O)N[C@@H](Cc2c[nH]c3ccccc23)C(=O)NCC(=O)N[C@@H](CC(C)C)C(=O)N1)C(=O)N1CCC[C@H]1C(=O)O [Toxin G14A] | 0.43 | 2.1 |
